The target of one test is Rat TNFα (rat) (UniProt P16599). As to the kind of experiment: SPR (Biacore T200), antibody captured via Fc, TNFα as analyte, 25 C; ka and kd ND. On the technique in general: Surface plasmon resonance follows binding to a sensor surface in real time, without labels.
The next test addresses Rabbit TNFα (rabbit) (UniProt P04924). Described as above.
The target in test [1] is Transmembrane TNFα on CHO/DG44-tm TNFα cells. Description: cell-based or functional assay.
A further test has as its target Canine TNFα (canine) (UniProt P51742). As to the kind of experiment: SPR (Biacore T200), antibody captured via Fc, TNFα as analyte, 25 C.
The target in a further test is Macaque TNFα (macaque). Described as above.
In another test the target is Porcine TNFα (porcine) (UniProt P23563). The description is as above.

As a reminder, the Kd is the constant that tells how readily two partners part at equilibrium.

Take “Adalimumab (commercial adalimumab, HUMIRA) (antibody)”: in the test with Rat TNFα (rat), the Kd is 681 nM. This substance also yielded a Kd with Rabbit TNFα (rabbit) of 528 nM. In test [1], the ADCC EC50 (target cell lysis, PBMC effector cells, E/T 25:1) is 0.0129 µg/mL; the ADCC Top (best-fit maximum % target cell lysis) (% target cell lysis) worked out at 46.7; the CDC EC50 (as told in the text, differs from Table 15) worked out at 0.44 µg/mL; the CDC EC50 (target cell lysis, 5% NHSC) amounted to 0.44 µg/mL. In test [1], the CDC EC50 (target cell lysis, 5% normal human serum complement) is 0.758 µg/mL; the CDC LogEC50 (best-fit value, four-parameter dose-response, 5% NHSC) was -0.12 log10(µg/mL); the CDC Span (best-fit value, Top minus Bottom, 5% NHSC) (% target cell lysis) was found to be 92.1; the CDC Top (best-fit maximum % target cell lysis) (% target cell lysis) was determined as 96.7. Also, the Kd with Canine TNFα (canine) was 1.49 nM. Besides, in the test with Macaque TNFα (macaque), the Kd came out at 0.772 nM. For the same substance, the Kd with Porcine TNFα (porcine) is 2.17 nM.
In turn, “Vectorized full-length adalimumab IgG expressed from pAAV.CAG.Adalimumab.IgG / AAV8.CAG.adalimumab.IgG (antibody)” displayed a Kd with Rat TNFα (rat) of 726 nM. In the test with Rabbit TNFα (rabbit), this substance returned a Kd of 614 nM. In test [1], this substance gave an ADCC EC50 (target cell lysis, PBMC effector cells, E/T 25:1) of 0.0168 µg/mL; an ADCC Top (best-fit maximum % target cell lysis) (% target cell lysis) of 30.3; a CDC Bottom (best-fit value, four-parameter dose-response, 5% NHSC) (% target cell lysis) of 3.1; a CDC EC50 (target cell lysis, 5% normal human serum complement) of 8.41 µg/mL. Further, in test [1], the CDC LogEC50 (best-fit value, four-parameter dose-response, 5% NHSC) is 0.925 log10(µg/mL); the CDC Span (best-fit value, Top minus Bottom, 5% NHSC) (% target cell lysis) stood at 86.2; the CDC Top (best-fit maximum % target cell lysis) (% target cell lysis) stood at 89.3. In the test with Canine TNFα (canine), this substance came in with a Kd of 1.54 nM. The same substance showed a Kd in the test with Macaque TNFα (macaque) of 0.72 nM. In the test with Porcine TNFα (porcine), this substance returned an equilibrium dissociation constant (Kd) of 2.05 nM.

The record behind these values is US20230391864A1.
